We go through 1 molecule from ChEMBL document CHEMBL4808240, “Design, synthesis and analysis of novel sphingosine kinase-1 inhibitors to improve oral bioavailability” (Bioorg Med Chem Lett, 2021).

Amino acid sequences for entries named in this document (tags omitted).
UniProt Q9NYA1, whole entry: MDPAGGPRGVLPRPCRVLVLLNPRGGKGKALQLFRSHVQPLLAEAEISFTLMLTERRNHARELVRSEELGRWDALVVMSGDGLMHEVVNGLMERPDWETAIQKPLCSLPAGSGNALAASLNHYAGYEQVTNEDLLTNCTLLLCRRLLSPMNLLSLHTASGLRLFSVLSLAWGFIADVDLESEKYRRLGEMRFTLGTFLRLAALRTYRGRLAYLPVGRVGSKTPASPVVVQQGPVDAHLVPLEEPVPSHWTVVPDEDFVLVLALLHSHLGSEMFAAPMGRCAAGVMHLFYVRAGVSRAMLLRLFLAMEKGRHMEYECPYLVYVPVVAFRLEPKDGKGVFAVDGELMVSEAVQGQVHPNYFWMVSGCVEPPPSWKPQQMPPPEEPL

In this assay the target is Sphingosine kinase 1 (Homo sapiens, UniProt Q9NYA1). Kind of assay: Inhibition of recombinant full length GST-tagged human SPHK1 expressed in baculovirus expression system incubated for 1 hr in presence of ATP by Alexa Fluor 647 tracer based Adapta assay relative to control. The note with it: concentration not given here.

By inhibition is commonly meant the percentage by which the read-out fell short of the control.

SMILES strings stand for the structures.

As for `O=C(N/N=C/c1c(O)ccc2ccccc12)c1cc(-c2ccc3ccccc3c2)n[nH]1`, the inhibition was 3%.
